Data on two molecules can be found in patent US12398154B2, “Azaquinazoline pan-KRas inhibitors” (Mirati Therapeutics, Inc., priority 2020, dated 2025).

Chains of the proteins cited; added tags and fusions are not shown. Residues count along the entry.
UniProt P01116, 1-169 isoform 2 G13D limits assumed: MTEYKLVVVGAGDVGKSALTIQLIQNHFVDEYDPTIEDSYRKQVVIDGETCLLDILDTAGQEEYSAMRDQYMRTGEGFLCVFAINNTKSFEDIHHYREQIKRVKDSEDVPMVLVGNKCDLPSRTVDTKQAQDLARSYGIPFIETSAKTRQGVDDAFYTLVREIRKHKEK
UniProt P01116, 1-169 isoform 2 Q61H limits assumed: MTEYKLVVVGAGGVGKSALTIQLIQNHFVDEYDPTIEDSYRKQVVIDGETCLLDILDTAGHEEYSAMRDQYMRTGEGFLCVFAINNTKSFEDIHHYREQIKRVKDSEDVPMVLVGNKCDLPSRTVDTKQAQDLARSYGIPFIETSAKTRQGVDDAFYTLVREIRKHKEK

Each structure is given as a SMILES string. Bounds are passed on as bounds.

Assay [1] deals with KRas G13D (Homo sapiens, UniProt P01116, G13D). The experiment in a line: KRas binding assay (TR-FRET displacement). The conditions noted are these: read-out: Binding to KRas (IC50 nM) G13D. (In general: In TR-FRET formats the signal depends on donor and acceptor labels being close together.)
Assay [2] has as its target KRas Q61H (Homo sapiens, UniProt P01116, Q61H). The experiment in a line: KRas binding assay (TR-FRET displacement). The conditions noted are these: read-out: Binding to KRas (IC50 nM) Q61H.
For assay [3], the system named is phospho-ERK in A549 (G12S) cells. The experiment in a line: Inhibition of KRas-mediated phosphorylation of ERK (in-cell western). To be noted: read-out: Inhibition (IC50, nM) of KRas-mediated Phosphorylation of ERK, A549, 3 hours compound, phospho-ERK normalized to GAPDH.
For assay [4], the system named is phospho-ERK in AsPC-1 (G12D) cells. The description is as above. To be noted: read-out: Inhibition (IC50, nM) of KRas-mediated Phosphorylation of ERK, AsPC-1, 3 hours compound, phospho-ERK normalized to GAPDH.
Assay [5] concerns phospho-ERK in HCT116 (G13D) cells. The description is as above. The conditions noted are these: read-out: Inhibition (IC50, nM) of KRas-mediated Phosphorylation of ERK, HCT116, 3 hours compound, phospho-ERK normalized to GAPDH.
For assay [6], the system named is phospho-ERK in MKN1 (WTdep) cells. Described as above. The conditions noted are these: read-out: Inhibition (IC50, nM) of KRas-mediated Phosphorylation of ERK, MKN1, 3 hours compound, phospho-ERK normalized to GAPDH.
For assay [7], the system named is phospho-ERK in NCI-H358 (G12C) cells. Described as above. The conditions noted are these: read-out: Inhibition (IC50, nM) of KRas-mediated Phosphorylation of ERK, H358, 3 hours compound, phospho-ERK normalized to GAPDH.
In assay [8] the test system is phospho-ERK in NCI-H460 (Q61H) cells. The description is as above. To be noted: read-out: Inhibition (IC50, nM) of KRas-mediated Phosphorylation of ERK, H460, 3 hours compound, phospho-ERK normalized to GAPDH.
Assay [9] deals with phospho-ERK in NCI-H727 (G12V) cells. Described as above. The conditions noted are these: read-out: Inhibition (IC50, nM) of KRas-mediated Phosphorylation of ERK, H727, 3 hours compound, phospho-ERK normalized to GAPDH.
Assay [10] concerns phospho-ERK in PSN-1 (G12R) cells. The description is as above. The conditions noted are these: read-out: Inhibition (IC50, nM) of KRas-mediated Phosphorylation of ERK, PSN1, 3 hours compound, phospho-ERK normalized to GAPDH.

The IC50 is the concentration that inhibits the measured activity by half. In the case of `CCc1c(F)ccc2cc(O)cc(-c3ncc4c(NCc5ncc[nH]5)nc(OC[C@@]56CCCN5C[C@H](F)C6)nc4c3F)c12`, the IC50 in assay [1] is 13 nM; in assay [2] it was 14 nM; in [3] it was at least 10000 nM; in [4], at least 10000 nM; in [5], at least 10000 nM; in [6], 412 nM. The IC50 was 701 nM in assay [7], 2920 nM in [8], at least 10000 nM in [9] and at least 10000 nM in assay [10].

For `OC1COCCN(c2nc(OCC34CCCN3CCC4)nc3c(F)c(-c4cccc5cccc(F)c45)ncc23)C1` (stereo not drawn), the IC50 in [1] was 3620 nM; in assay [2], 3440 nM.
